Patent US7671062B2, “Modulators of chemokine receptor activity, crystalline forms and process” (Bristol-Myers Squibb Company, priority 2006, dated 2010)

Protein sequences, listed by entry. Tags and fused reporters are not part of them. Residues count along the entry.
UniProt P41597, 1-360 isoform 2: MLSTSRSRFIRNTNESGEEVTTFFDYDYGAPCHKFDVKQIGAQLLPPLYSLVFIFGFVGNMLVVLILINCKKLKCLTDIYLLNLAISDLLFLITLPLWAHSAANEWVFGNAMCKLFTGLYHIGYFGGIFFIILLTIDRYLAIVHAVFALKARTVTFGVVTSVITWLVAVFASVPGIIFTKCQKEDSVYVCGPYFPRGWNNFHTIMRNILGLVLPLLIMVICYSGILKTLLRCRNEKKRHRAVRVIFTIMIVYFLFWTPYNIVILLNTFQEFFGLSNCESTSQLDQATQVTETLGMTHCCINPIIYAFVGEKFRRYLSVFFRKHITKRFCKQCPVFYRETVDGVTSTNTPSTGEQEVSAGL

Legend:
CCR2 [1] = molecular target: T1, CCR2 (Homo sapiens, UniProt P41597); experiment: Human peripheral blood mononuclear cell binding (CCR2 binding), 125I-human MCP-1 tracer; conditions: read-out: CCR2 Binding IC50; mean ± SD (n in parentheses); tested form: TFA
CCR2 [2] = molecular target: T1, CCR2; experiment: CCR2 chemotaxis, MCP-1-induced, THP-1 cells; format: cell-based
Sodium Channel, Site 2 = conditions: at 10,000 nM

For `CC(C)N(C)[C@@H]1CC[C@H](N2CC[C@H](NC(=O)c3cccc(C(F)(F)F)c3)C2=O)[C@H](CS(C)(=O)=O)C1`, the IC50 (CCR2 [1]) was 1.83 nM and the IC50 (CCR2 [2]; read-out: CCR2 Chemotaxis IC50, number in brackets = n, tested form: TFA) was 2.63 nM.
`CC(C)N(C)[C@@H]1CC[C@H](N2CC[C@H](NC(=O)c3cccc(C(F)(F)F)n3)C2=O)[C@H](CS(C)(=O)=O)C1` was tested, and the “Na+ channel binding (% inhibition)” value (Sodium Channel, Site 2) was 6%, 10,000 nM.
In the case of `CCC[C@@H]1C[C@H](N(C)C(C)C)CC[C@@H]1N1CC[C@H](Nc2ncnc3ccc(C(F)(F)F)cc23)C1=O`, the “Na+ channel binding (% inhibition)” value (Sodium Channel, Site 2) is reported as 97%, 10,000 nM.
For `CC(C)N(C)[C@@H]1CC[C@H](N2CC[C@H](NC(=O)c3cccc(C(F)(F)F)c3)C2=O)[C@H](CS(=O)(=O)C(C)(C)C)C1`, the IC50 (CCR2 [2]; read-out: CCR2 Chemotaxis IC50, number in brackets = n) was 0.21 nM.
